The results in this text go back to US7932240B2, “Phosphadiazine HCV polymerase inhibitors IV” (dated 2011).

The chains behind the UniProt entries cited, without tags or fusion partners. Where a name states a change or a piece, a line headed by the entry shows the natural chain unless it says otherwise.
UniProt P54098: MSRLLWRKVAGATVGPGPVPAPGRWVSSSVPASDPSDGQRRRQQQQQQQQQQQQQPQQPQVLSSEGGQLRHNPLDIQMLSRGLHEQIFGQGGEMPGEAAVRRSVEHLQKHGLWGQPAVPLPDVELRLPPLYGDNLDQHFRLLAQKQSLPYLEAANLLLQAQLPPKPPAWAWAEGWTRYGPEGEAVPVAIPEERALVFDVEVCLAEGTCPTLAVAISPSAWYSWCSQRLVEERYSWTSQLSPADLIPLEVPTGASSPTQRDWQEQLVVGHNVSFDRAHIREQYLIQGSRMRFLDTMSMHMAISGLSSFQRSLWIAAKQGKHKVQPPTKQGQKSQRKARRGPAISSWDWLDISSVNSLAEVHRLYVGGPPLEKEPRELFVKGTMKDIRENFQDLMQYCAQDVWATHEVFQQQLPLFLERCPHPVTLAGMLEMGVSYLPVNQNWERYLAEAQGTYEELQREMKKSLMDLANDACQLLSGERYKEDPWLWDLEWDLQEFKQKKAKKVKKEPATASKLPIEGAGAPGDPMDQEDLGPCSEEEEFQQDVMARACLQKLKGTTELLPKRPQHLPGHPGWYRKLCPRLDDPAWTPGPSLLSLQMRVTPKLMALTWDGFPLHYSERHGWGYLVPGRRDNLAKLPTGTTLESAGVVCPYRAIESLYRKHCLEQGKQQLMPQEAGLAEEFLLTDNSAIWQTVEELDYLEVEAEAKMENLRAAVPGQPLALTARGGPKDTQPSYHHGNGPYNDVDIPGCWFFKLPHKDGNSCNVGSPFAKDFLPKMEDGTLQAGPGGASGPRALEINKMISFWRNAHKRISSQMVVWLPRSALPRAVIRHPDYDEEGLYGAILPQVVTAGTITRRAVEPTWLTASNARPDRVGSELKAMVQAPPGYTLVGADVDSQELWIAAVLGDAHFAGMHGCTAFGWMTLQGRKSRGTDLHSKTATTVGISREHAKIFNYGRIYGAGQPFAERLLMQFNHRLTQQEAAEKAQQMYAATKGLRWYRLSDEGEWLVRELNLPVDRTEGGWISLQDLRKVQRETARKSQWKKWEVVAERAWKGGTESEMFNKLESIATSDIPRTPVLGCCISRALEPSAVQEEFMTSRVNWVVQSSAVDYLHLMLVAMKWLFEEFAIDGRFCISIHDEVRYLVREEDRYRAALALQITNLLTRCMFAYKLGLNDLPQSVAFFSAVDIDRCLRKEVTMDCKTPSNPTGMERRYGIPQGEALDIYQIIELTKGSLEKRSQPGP
UniProt P09884: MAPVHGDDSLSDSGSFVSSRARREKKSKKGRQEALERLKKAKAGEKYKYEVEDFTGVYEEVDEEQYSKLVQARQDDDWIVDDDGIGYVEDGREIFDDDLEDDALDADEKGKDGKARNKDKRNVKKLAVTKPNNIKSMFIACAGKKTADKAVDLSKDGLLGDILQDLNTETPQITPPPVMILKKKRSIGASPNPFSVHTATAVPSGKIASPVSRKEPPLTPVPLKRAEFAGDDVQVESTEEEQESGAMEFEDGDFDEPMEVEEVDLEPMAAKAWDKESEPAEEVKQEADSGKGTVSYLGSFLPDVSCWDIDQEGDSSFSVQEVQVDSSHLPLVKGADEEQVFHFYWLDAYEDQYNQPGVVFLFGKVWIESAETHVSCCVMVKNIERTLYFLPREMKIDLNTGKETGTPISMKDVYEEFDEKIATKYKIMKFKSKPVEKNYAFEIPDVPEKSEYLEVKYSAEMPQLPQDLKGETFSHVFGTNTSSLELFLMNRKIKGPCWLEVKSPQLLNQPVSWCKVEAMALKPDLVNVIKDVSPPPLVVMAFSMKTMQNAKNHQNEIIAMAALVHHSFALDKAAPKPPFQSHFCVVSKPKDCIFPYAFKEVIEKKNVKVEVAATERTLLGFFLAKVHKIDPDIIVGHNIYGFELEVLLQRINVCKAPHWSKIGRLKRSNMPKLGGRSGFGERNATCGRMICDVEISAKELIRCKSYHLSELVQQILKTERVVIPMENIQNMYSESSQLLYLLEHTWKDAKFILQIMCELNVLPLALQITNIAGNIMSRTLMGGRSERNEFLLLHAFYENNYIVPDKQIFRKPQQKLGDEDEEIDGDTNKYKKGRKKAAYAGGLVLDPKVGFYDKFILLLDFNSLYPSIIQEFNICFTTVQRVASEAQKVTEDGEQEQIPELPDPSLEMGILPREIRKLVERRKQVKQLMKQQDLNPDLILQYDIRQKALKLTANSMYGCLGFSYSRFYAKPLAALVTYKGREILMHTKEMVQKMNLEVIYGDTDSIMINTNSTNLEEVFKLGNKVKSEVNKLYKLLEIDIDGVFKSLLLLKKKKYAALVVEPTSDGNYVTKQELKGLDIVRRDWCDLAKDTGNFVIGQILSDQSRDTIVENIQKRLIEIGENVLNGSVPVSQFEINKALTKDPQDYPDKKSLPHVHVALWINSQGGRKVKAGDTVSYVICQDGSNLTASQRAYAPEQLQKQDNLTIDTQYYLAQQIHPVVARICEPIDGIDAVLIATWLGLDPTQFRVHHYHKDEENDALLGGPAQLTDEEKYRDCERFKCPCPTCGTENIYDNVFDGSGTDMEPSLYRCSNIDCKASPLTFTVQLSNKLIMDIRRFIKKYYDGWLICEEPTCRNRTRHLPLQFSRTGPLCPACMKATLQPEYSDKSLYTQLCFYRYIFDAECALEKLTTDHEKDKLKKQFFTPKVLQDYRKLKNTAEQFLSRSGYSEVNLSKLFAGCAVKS

The target of assay [1] is human DNA polymerase gamma (Homo sapiens, UniProt P54098). The assay can be described thus: Human cellular DNA polymerase gamma assay. The note with it: read-out: Mean IC50 Values (μM) ± Standard Deviation, human DNA polymerase gamma; Table 9; N = 2.
Assay [2] deals with human DNA polymerase alpha (Homo sapiens, UniProt P09884). The experiment in a line: Human cellular DNA polymerase alpha assay. The note with it: read-out: Mean IC50 Values (μM) ± Standard Deviation, human DNA polymerase alpha; Table 9; N = 2.

Regarding Actinomycin D, the IC50 in assay [1] came to 10.8 µM; in assay [2], 22.5 µM.

A word on the IC50: it is the concentration needed to halve the response being measured.
